The values below come from PubChem BioAssay AID687016 (The Scripps Research Institute Molecular Screening Center, 2013).

The chains behind the UniProt entries cited, without tags or fusion partners. Where a name states a change or a piece, a line headed by the entry shows the natural chain unless it says otherwise.
UniProt Q96T88: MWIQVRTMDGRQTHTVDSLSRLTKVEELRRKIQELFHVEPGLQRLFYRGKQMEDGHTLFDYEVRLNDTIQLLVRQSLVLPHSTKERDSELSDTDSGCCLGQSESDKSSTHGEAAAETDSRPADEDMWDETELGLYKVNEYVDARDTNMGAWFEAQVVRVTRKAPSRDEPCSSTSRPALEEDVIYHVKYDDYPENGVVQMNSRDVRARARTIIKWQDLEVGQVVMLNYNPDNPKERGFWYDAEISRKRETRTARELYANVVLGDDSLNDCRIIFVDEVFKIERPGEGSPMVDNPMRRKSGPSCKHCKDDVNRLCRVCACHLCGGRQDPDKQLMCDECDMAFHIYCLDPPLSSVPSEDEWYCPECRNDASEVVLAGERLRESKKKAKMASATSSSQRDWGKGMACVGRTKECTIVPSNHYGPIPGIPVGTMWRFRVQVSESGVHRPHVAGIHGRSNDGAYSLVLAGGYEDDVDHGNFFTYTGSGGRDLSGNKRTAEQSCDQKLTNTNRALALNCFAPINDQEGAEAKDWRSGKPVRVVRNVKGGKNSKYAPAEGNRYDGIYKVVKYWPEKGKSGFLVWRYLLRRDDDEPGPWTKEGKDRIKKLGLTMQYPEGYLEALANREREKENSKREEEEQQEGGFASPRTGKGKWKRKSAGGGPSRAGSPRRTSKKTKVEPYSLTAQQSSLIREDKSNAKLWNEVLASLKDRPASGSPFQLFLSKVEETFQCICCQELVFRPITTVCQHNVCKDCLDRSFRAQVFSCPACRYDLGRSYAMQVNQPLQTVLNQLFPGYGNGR

As a reminder, the inhibition is the drop in the measured response relative to a control, in per cent.

This is a selection; strong and weak results do not stand in their true shares. The source made the active and inactive calls. Rule as the data show it: active = inhibition above about 21%; inactive = the rest.

In the assay the target is E3 ubiquitin-protein ligase UHRF1 (Homo sapiens) (UniProt Q96T88). The experiment in a line: UHRF1 methylated DNA binding inhibitors, primary screen, counter-screen for MBD2 inhibitor project, biochemical, TR-FRET, human UHRF1, single concentration (AID 687016).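 Also: UHRF1 SRA domain binding a hemimethylated CpG hairpin DNA probe; 0% = median of test compound wells and 100% = reference inhibitor.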 The conditions noted are these: UHRF1 binding to methylated oligo, at 4.4 µM, stronger effect = higher value. A general note: The purpose of a counterscreen is to sort out artefacts and off-target activity.
Take `O=[As](O)(c1ccccc1)c1ccc(O)cc1`: the inhibition was inactive: 1.93%.

With `O=[N+]([O-])c1ncn(CCn2cnc([N+](=O)[O-])n2)n1`, the inhibition was inactive: -0.56%. As for `CC(=O)NC(SC(=S)N(C)C)C(Cl)(Cl)Cl` (stereo not given), the inhibition was inactive: 0.54%. Take `O=C(OC1CN2CCC1CC2)c1cccc(Cl)c1` (stereo not given): the inhibition is inactive: 1.74%. Regarding `Nc1ccc([As](=O)(O)c2ccc([N+](=O)[O-])cc2)cc1`, the inhibition is inactive: -2.33%. Take `C(Cc1nn[nH]n1)Cc1nn[nH]n1`: the inhibition is inactive: -0.77%. Regarding `C/C(N)=N\P(=O)(OCc1ccccc1)OCc1ccccc1`, the inhibition was inactive: -1.82%.

In the case of `CN(C)C1(CNC(=O)c2ccc(Cl)c(S(N)(=O)=O)c2)CCCCC1`, the inhibition is inactive: -0.53%.

With `O=P(Nc1ccccn1)(c1ccc(Br)cc1)c1ccc(Br)cc1`, the inhibition was inactive: -0.06%. Take `Nc1ccc(CCCCOc2ccccc2)cc1`: the inhibition is inactive: 1.09%. Consider `COc1ccc(N)c([N+](=O)[O-])c1[N+](=O)[O-]`, for which the inhibition was inactive: -5.1%. Consider `C[C@H]1OP(=O)(Oc2ccccc2)[C@H](O)[C@H](O)[C@H]1N=[N+]=[N-]` (stereo not given in full), for which the inhibition was inactive: -2%. For `O=P(Nc1nc2ccccc2s1)(c1ccccc1)c1ccccc1` the value was inactive: -1.6%; for `O=P(Nc1nccs1)(c1ccccc1)c1ccccc1`, inactive: -0.64%; for `CC(C)C(=O)NC(Sc1ccccc1)C(Cl)(Cl)Cl` (stereo not given), inactive: 0.93%.

On to `c1nnnn1CCn1cnnn1`, for which the inhibition was inactive: -3.51%.

For the compound `C[C@@H]1C=CCP(=O)(Oc2ccccc2)O1` (stereo not given in full), the inhibition was inactive: 3.81%. Turning to `C[C@H]1OP(=O)(Oc2ccccc2)C[C@@H]2O[C@@H]21` (stereo not given in full), the inhibition is inactive: -1.18%.

Consider `Cc1ccccc1CN(C)C(=O)COC(=O)C(O)(c1ccccc1)c1ccccc1`, for which the inhibition was inactive: 0.75%. Turning to `COC(=O)C1(C)COP(=O)(NCc2ccccc2)OC1` (stereo not given), the inhibition was inactive: 1.19%. For `N#C/C(=C\c1ccc(N(CCBr)CCBr)cc1)C(N)=O` the value was inactive: -8.98%; for `CC(=O)c1ccc(N2CC2c2ccncc2)cc1` (stereo not given), inactive: -0.38%. Turning to `CC(=O)Nc1ccc(Oc2c([N+](=O)[O-])cc([N+](=O)[O-])cc2[N+](=O)[O-])cc1`, the inhibition was inactive: -1.22%.

As for `CC(=O)Nc1ccc([As](=O)(O)O)c(O)c1`, the inhibition is inactive: -2.34%.

For `CCOc1ccc(C2=NCC(CBr)S2)cc1` (stereo not given), the inhibition was inactive: 1.26%. In the case of `O=P1(Nc2nc3ccc(Cl)cc3s2)COc2ccccc2O1` (stereo not given), the inhibition was inactive: -0.75%. On to `CC(C)(C)C(=O)NC(Sc1ccccc1)C(Cl)(Cl)Cl` (stereo not given), for which the inhibition was inactive: 0.69%. Consider `CCc1cc(O)c([N+](=O)[O-])c(C)c1[N+](=O)[O-]`, for which the inhibition is inactive: 0.07%. Consider `CCC(=O)N1C2C3N(C(=O)CC)C1C1N(C(=O)CC)C(C(N1C(=O)CC)N3C(=O)CC)N2C(=O)CC`, for which the inhibition was inactive: -1.63%. `O=C(OC1CN2CCC1CC2)c1ccccc1` (stereo not given): the inhibition is inactive: 2.06%.

With `Cc1ccc(OP(=O)(Nc2ccccn2)Oc2ccc(C)cc2)cc1`, the inhibition is inactive: -0.66%.

In the case of `CC(=O)NC(SC(=S)N(CC(C)C)CC(C)C)C(Cl)(Cl)Cl` (stereo not given), the inhibition was inactive: 0.53%. For `COC(=O)c1cc2c(s1)N=C(c1ccccc1)N(C)P2(=O)N1CCOCC1` (stereo not given), the inhibition was inactive: -2.89%.

Turning to `CN(C)C(=O)Oc1noc2ccccc12`, the inhibition is inactive: -1.56%. For `O=c1c2cc([N+](=O)[O-])ccc2[nH]c2c([N+](=O)[O-])cc([N+](=O)[O-])cc12` the value was inactive: -1.78%; for `Cc1ccccc1OP(=O)(Nc1ccccn1)Oc1ccccc1C`, inactive: 0.95%; for `CC(NC(=O)COC(=O)C(O)(c1ccccc1)c1ccccc1)c1ccccc1` (stereo not given), inactive: 1.22%. For `Cc1ccc(NP(=O)(Oc2cccc(C)c2)Oc2cccc(C)c2)nc1` the value was inactive: 3.49%; for `c1ccc(-c2nn[nH]n2)c(-c2nn[nH]n2)c1`, inactive: -1.86%; for `O=C(NC1CCS(=O)(=O)C1)NP(=S)(Oc1ccccc1)Oc1ccccc1` (stereo not given), inactive: 7.59%. In the case of `CCNC(=S)/N=C(\N)N[N+](=O)[O-]`, the inhibition is inactive: -3.63%. With `O=P1(N(CCCl)CCCl)OCCC2CCCCN21` (stereo not given), the inhibition is inactive: 0.96%. Consider `Nc1cccc2ccc([As](=O)(O)O)cc12`, for which the inhibition is inactive: 2.71%.

Take `CCN(N=Nc1nonc1N)c1nonc1N`: the inhibition is inactive: -2.65%.

Turning to `CN(C(=O)Cc1ccccc1)C1CC[C@@]2(CCCO2)C[C@@H]1N1CCCC1` (stereo not given in full), the inhibition was inactive: -3.27%. For `CN(C)P(=O)(N(C)C)n1c(Nc2ccccc2)nnc1-c1ccccc1`, the inhibition was inactive: -2.56%.

In the case of `O=P(Nc1nc2ccc(Cl)cc2s1)(c1ccccc1)c1ccccc1`, the inhibition is inactive: -1.86%. Regarding `CCCC1OP(N)(=O)OCC1CC` (stereo not given), the inhibition is inactive: 0.77%. For `O=C(O)c1ccccc1[As](=O)(O)O` the value was inactive: 0.55%; for `CC(=O)Nc1ccc([As](=O)(O)O)cc1`, inactive: 4.32%; for `CCn1c(=O)n(C2CCN(CC3CCCCCCC3)C[C@H]2CO)c2ccccc21` (stereo not given in full), inactive: 4.63%.

With `CN(C(=O)Cc1ccc(Cl)c(Cl)c1)[C@H]1CCCC[C@@H]1N1CCCC1`, the inhibition was inactive: -0.21%.

`Cc1ccc(NP(=O)(Oc2ccccc2F)Oc2ccccc2F)nc1`: the inhibition was inactive: -1.24%. Take `CCOP(=O)(Nc1ccccc1)OCC`: the inhibition is inactive: -0.57%. For the compound `Cc1cc(SC(NC(=O)c2ccc(F)cc2)C(Cl)(Cl)Cl)ncn1` (stereo not given), the inhibition was inactive: -4.2%. As to `O=C(NC(Sc1ccncn1)C(Cl)(Cl)Cl)c1ccccc1` (stereo not given), the inhibition was inactive: 2.58%.

On to `Oc1ccccc1CNc1ccccn1`, for which the inhibition was inactive: 0.53%. Take `CC(C)CC(=O)NC(Sc1ccc(Cl)cc1)C(Cl)(Cl)Cl` (stereo not given): the inhibition is inactive: -0.31%.

Turning to `Nc1cc(N)c2nonc2c1[N+](=O)[O-]`, the inhibition is inactive: -7.84%.

For `Cc1ccc(N/C(=N/P(=O)(N2CCOCC2)N2CCOCC2)N2CCOCC2)cc1`, the inhibition is inactive: -0.8%. For `CN(C(=O)Cc1ccc(Cl)c(Cl)c1)[C@H]1CCCC[C@H]1N1CCCC1` the value was inactive: -0.75%.

For `NC(=O)c1cc([N+](=O)[O-])cc([N+](=O)[O-])c1N`, the inhibition was inactive: -3.48%. Turning to `Clc1ccc(Cl)c(NC2=NCC(CBr)S2)c1` (stereo not given), the inhibition is inactive: 2.28%.

`CN1CCCC(OC(=O)C(c2ccccc2)c2ccccc2)C1` (stereo not given): the inhibition was inactive: -0.16%. For the compound `Cc1ccc(OP(=O)(Nc2nccs2)Oc2ccc(C)cc2)cc1`, the inhibition was inactive: 6.75%.
